In assay [1] the target is T1, BC2L-C N-terminal lectin domain (BC2L-CN, rBC2L-CN2) (Burkholderia cenocepacia, UniProt B4EH86). The assay can be described thus: ITC at […] °C (single measurement).
The target in assay [2] is T1, BC2L-C N-terminal lectin domain (BC2L-CN, rBC2L-CN2). Briefly: ITC at […] °C and X-ray co-crystal structure ([…] Å).
Assay [3] has the same target. Briefly: ITC at […] °C and X-ray co-crystal structure ([…] Å). This is another data set of the same source.

Molecules are shown by their SMILES.

Turning to `CC(=O)N[C@H]1[C@H](O[C@H]2[C@@H](O)[C@@H](CO)OC(O)[C@@H]2O)O[C@H](CO)[C@@H](O[C@@H]2O[C@H](CO)[C@H](O)[C@H](O)[C@H]2O[C@@H]2O[C@@H](C)[C@@H](O)[C@@H](O)[C@@H]2O)[C@@H]1O[C@@H]1O[C@@H](C)[C@@H](O)[C@@H](O)[C@@H]1O` (stereo partly drawn) [Lewis Y, Lewis Y pentasaccharide], in assay [1], the Kd stood at 52.6 µM.
As to `CC(=O)N[C@H]1[C@H](O[C@H]2[C@@H](O)[C@@H](CO)O[C@H](O[C@@H]3[C@H](O)[C@@H](O)[C@H](O[C@H]4[C@H](O)[C@@H](O)C(O)O[C@@H]4CO)O[C@@H]3CO)[C@@H]2O)O[C@H](CO)[C@H](O)[C@@H]1O[C@@H]1O[C@H](CO)[C@H](O)[C@H](O)[C@H]1O[C@@H]1O[C@@H](C)[C@@H](O)[C@@H](O)[C@@H]1O` (stereo partly drawn) [GloboH (H-type 3), Globo H hexasaccharide], binding in assay [2] was characterised by a dissociation constant (Kd) of 26 ± 1.7 µM.
As to `CC(=O)N[C@H]1[C@H](O[C@H]2[C@@H](O)[C@@H](CO)OC(O)[C@@H]2O)O[C@H](CO)[C@@H](O)[C@@H]1O[C@@H]1O[C@H](CO)[C@H](O)[C@H](O)[C@H]1O[C@@H]1O[C@@H](C)[C@@H](O)[C@@H](O)[C@@H]1O` (stereo partly drawn) [H-type 1, H-type 1 tetrasaccharide], the Kd in assay [3] was found to be 56.6 µM.

As a reminder, the Kd is the constant that tells how readily two partners part at equilibrium.

Source of the values: PMC7024360.
